miR-21 FLuc: raises the signal of a miR-21 reporter | AID 2288 | 340,000 tested, under 10 active | Potency, µM (series often up to 38.3 µM) | HeLa miR-21 FLuc reporter, luciferase, 48 h; active = well fitted rising curve with a large enough effect; inconclusive = small, poorly fitted or top-dose-only effect; inactive = no such curve, though single readings can be large or run the other way;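 further: miR-21 action dims this reporter so a rising signal means less miR-21 action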
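HeLa miR-21-FLuc reporter line, endogenous miR-21; 2000 cells/well in DMEM/10% FBS; compound titration up to ~40uM final, 48 h, 37 degree Celsius; luciferase detection reagent, 15 min lysis, CCD luminescence.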
TDP1 cell noCPT: qHTS for Inhibitors of human tyrosyl-DNA phosphodiesterase 1 (TDP1): qHTS in cells in absence of CPT; Potency, µM (highest dose often 46.2 µM), most hits filed as inhibitors; DT40 Tdp1-/- hTDP1 cells, no CPT, ATP luminescence, 48 h; 15% of 420,000 active; note: nearly all actives have a fitted effect of over 55% in size
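No-CPT arm: Tdp1-/-;hTDP1 DT40 cells (400/well) plus compounds, incubated ≥48 hr at 37 °C. Readout CellTiter-Glo luminescence.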
DT40 TDP1 CPT: growth inhibition of DT40 Tdp1-/-;hTDP1 cells with camptothecin (screen for TDP1 inhibitors) | Potency, µM (series often up to 46.2 µM), actives largely listed as inhibitors | chicken DT40 Tdp1-/-;hTDP1 cells + 20 nM CPT, ATP luminescence, 48 h | 12% of 420,000 active | AID 686979; note: nearly all actives have a fitted effect of over 55% in size
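Chicken DT40 Tdp1-/- cells stably complemented with human TDP1 were seeded at 400 cells/well in medium containing 20 nM camptothecin, exposed to pin-transferred compounds, and grown at 37 °C for at least 48 hr. Viability was read as ATP luminescence.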
TDP1 inh: TDP1 (human) enzyme inhibition. Q9NUW8. recombinant TDP1, AlphaScreen DNA substrate cleavage. Potency, µM (series often up to 130 µM), usual class: inhibitors. 0.28% of 350,000 active; note: nearly all actives have a fitted effect of over 40% in size
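Enzyme-compound mixtures sat 15 min at room temperature, followed by a 5 min reaction with 15 nM final substrate and 10 min with AlphaScreen beads. Recombinant human Tdp1 was used at 1 nM final.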
uPA generation: blocks generation of uPA at the cell surface. cell surface uPA generation assay, qHTS. Potency, µM (titrated, usually from 38.3 µM), usual class: inhibitors. 0.31% of 330,000 active. AID 540303; active = well fitted inhibition curve with a large enough effect; inconclusive = small, poorly fitted or top-dose-only effect; inactive = no such curve, though single readings can be large or run the other way; tested in mouse RAW 264.7 cells; note: nearly all actives have a fitted effect of over 55% in size
Of the large screens only hits and unclear results are named; the others gave an inactive call. Compounds with a hit are over-represented: about 16% of the library has one in this group of screens. Unless noted, calls come from the whole dose curve; as a rule, active = well fitted curve in the direction sought with a large enough effect; inconclusive = small, poorly fitted or top-dose-only effect, or another doubt; inactive = no such curve, though single readings can be large; an effect the other way counts as inactive or inconclusive.

Cc1ccc(-c2nnc(Nc3cccc(Cl)c3)c3ccccc23)cc1S(=O)(=O)NCC1CCCO1 (stereo not drawn)	TDP1 cell noCPT 4.1µM, DT40 TDP1 CPT 23µM (no result: TDP1 inh, uPA generation)
Cc1ccc(-c2nnc(N3CCCCC3)c3ccccc23)cc1S(=O)(=O)NCC1CCCO1 (stereo not drawn)	TDP1 cell noCPT 21µM, DT40 TDP1 CPT 18µM (no result: uPA generation)
COc1nnc(-c2ccc(C)c(S(=O)(=O)NCC3CCCO3)c2)c2ccccc12 (stereo not drawn)	TDP1 cell noCPT inconclusive, DT40 TDP1 CPT inconclusive (no result: TDP1 inh)
Cc1cccc(Nc2nnc(-c3ccc(C)c(S(=O)(=O)NCC4CCCO4)c3)c3ccccc23)c1 (stereo not drawn)	TDP1 cell noCPT 6.5µM, DT40 TDP1 CPT 23µM (no result: TDP1 inh, uPA generation)
Cc1ccc(-c2nnc(Nc3ccc(C(N)=O)cc3)c3ccccc23)cc1S(=O)(=O)NCC1CCCO1 (stereo not drawn)	TDP1 cell noCPT inconclusive, DT40 TDP1 CPT inconclusive
Cc1ccc(-c2nnc(Nc3ccc4c(c3)OCO4)c3ccccc23)cc1S(N)(=O)=O	TDP1 cell noCPT inconclusive, DT40 TDP1 CPT inconclusive
Cc1ccc(-c2nnc(Nc3ccc(Cl)cc3)c3ccccc23)cc1S(=O)(=O)NCC1CCCO1 (stereo not drawn)	TDP1 cell noCPT 21µM, DT40 TDP1 CPT inconclusive (no result: TDP1 inh, uPA generation)
CC(C)CNC(=O)COC(=O)c1ccc([N+](=O)[O-])cc1Cl	none
CCNC(=O)CCn1nc(-c2ccc(C)cc2)c2ccccc2c1=O	TDP1 cell noCPT inconclusive (no result: TDP1 inh)
COc1ccc(S(=O)(=O)N2CCN(CC(=O)Nc3ccccc3OC)CC2)cc1	none
O=C(N/N=C\C=C\c1ccco1)C1COc2ccccc2O1 (stereo not drawn)	TDP1 cell noCPT 10µM, DT40 TDP1 CPT 2.6µM (no result: TDP1 inh)
O=C(N/N=C\C=C\c1ccc2c(c1)OCO2)C1COc2cc3ccccc3cc2O1 (stereo not drawn)	TDP1 cell noCPT inconclusive
O=C(CCc1c[nH]c2ccccc12)N/N=C/c1ccc2c(c1)OCO2	TDP1 cell noCPT 23µM
O=C(Cc1ccccc1)N/N=C/c1ccc2c(c1)OCO2	none
COc1ccc(/C=N\NC(=O)C2COc3ccccc3O2)cc1O (stereo not drawn)	TDP1 cell noCPT inconclusive, DT40 TDP1 CPT 15µM
COc1cc(/C=N/NC(=O)C2COc3ccccc3O2)ccc1O (stereo not drawn)	none
C/C(=N\NC(=O)C1COc2ccccc2O1)c1ccccn1 (stereo not drawn)	TDP1 cell noCPT 2.9µM, DT40 TDP1 CPT 5.8µM
COc1cc(OC)c(C(=O)NCC2CCCO2)cc1OC (stereo not drawn)	none
CC(C)OC(=O)CSc1nc(Cc2cccs2)nc2ccccc12	TDP1 cell noCPT inconclusive
Cc1cc([N+](=O)[O-])cc(/C=N\NC(=O)C2COc3ccccc3O2)c1O (stereo not drawn)	TDP1 cell noCPT 13µM, DT40 TDP1 CPT 16µM
COc1ccc(/C=N/NC(=O)C2COc3ccccc3O2)cc1OC (stereo not drawn)	none
O=C(N/N=C/c1ccc2c(c1)OCO2)C1COc2ccccc2O1 (stereo not drawn)	TDP1 cell noCPT 23µM, DT40 TDP1 CPT inconclusive
CC1=CC(C)=Nc2ccc(C)cc2N1	none
CCOc1ccc(C2=NC(c3ccc(OC)cc3)=Nc3ccc(Cl)cc3N2)cc1	TDP1 cell noCPT 21µM, DT40 TDP1 CPT inconclusive (no result: uPA generation)
COc1ccc(C2=Nc3ccc(OC(F)(F)F)cc3NC(c3cccnc3)=N2)cc1	TDP1 cell noCPT 6.5µM, DT40 TDP1 CPT 10µM (no result: uPA generation)
COc1ccc2c(c1)NC(c1ccc(Cl)cc1)=NC(c1cccs1)=N2	DT40 TDP1 CPT 29µM (no result: uPA generation)
CCCCOc1ccc(C2=NC(c3ccccc3)=Nc3ccc(OC)cc3N2)cc1	TDP1 cell noCPT 23µM, DT40 TDP1 CPT 16µM (no result: uPA generation)
CCOC(=O)C1(C)CCCN(C(=O)c2cc(F)ccc2C)C1 (stereo not drawn)	none (no result: miR-21 FLuc, TDP1 inh, uPA generation)
Cn1cc(Br)c(C(=O)N2CCCCCC2)n1	none
CCOC(=O)/C(=C/c1c(C)n(C)c2ccc([N+](=O)[O-])cc12)C(C)=O	TDP1 cell noCPT 9.2µM, DT40 TDP1 CPT inconclusive
CCOC(=O)c1cnc(SC)nc1Sc1cc(Cl)ccc1Cl	TDP1 cell noCPT 18µM, DT40 TDP1 CPT 21µM

Bioassay records (PubChem BioAssay)
